In patent US8936808B1, “Opioid agonist/opioid antagonist/acetaminophen combinations” (Purdue Pharma L.P., priority 1997, dated 2015):

Format: in vivo
Conditions: in comparison to a 15 mg dose of hydrocodone

Structure (SMILES): CN1CC[C@]23c4c5ccc(O)c4O[C@H]2C(=O)CC[C@H]3[C@H]1C5 [Hydromorphone]
- Equianalgesic Doses of Opioids, Calculated Dose: 3.375 mg
